Assay results: paper PMC4420714 (Peptides, 2015)
Entries after “also recorded” stand apart in the source; their conditions may differ. Read-outs that look alike come from different tables or passages of the source.

Amino acid sequences for entries named in this document (tags omitted). Residues count along the entry.
UniProt P32241, 31-457, species assumed: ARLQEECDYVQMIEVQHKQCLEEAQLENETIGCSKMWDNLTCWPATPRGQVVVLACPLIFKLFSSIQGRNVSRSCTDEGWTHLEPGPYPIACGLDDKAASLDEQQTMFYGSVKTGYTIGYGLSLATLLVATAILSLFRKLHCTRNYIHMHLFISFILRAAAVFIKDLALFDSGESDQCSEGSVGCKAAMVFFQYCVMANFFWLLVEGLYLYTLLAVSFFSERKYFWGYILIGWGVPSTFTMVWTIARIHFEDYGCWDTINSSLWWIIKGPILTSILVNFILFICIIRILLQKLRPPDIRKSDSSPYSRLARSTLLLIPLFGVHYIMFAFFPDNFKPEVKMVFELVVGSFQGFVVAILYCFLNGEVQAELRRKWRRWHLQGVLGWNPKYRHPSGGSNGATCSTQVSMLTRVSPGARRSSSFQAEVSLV

Key:
PAC1-R [1] = biological target: T1, PAC1-R (Homo sapiens, UniProt P41586); assay: [3H]cAMP generation in PAC1-R cells; assay type: cell-based; conditions: for higher potency for PAC1-R cells compared to VPAC1-R/PANC-1 cells / higher potency for PAC1-R cells compared to VPAC2-R/PANC-1 cells: cAMP generation EC50 ratio; for EC50: read-out: [3H]cAMP PAC1-R EC50; for greater affinity than potency, PAC1-R cells: EC50 cAMP over binding IC50; for [3H]cAMP PAC1-R % max (agonist class): relative to maximal stimulation by PACAP38, up to 1 µM
T1 sequence (P41586 21-468): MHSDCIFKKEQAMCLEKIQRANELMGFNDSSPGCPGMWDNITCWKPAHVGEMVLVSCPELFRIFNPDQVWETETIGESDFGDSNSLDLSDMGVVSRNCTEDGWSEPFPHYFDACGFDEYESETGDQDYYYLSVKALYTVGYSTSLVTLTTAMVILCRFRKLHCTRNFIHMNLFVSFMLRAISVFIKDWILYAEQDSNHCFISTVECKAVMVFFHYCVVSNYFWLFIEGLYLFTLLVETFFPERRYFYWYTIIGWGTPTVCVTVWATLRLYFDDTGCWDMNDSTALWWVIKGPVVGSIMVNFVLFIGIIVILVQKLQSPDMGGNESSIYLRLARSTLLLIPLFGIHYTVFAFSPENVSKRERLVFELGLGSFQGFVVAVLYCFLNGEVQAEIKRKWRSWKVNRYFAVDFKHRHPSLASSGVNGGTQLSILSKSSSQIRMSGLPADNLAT

VPAC2-R [2] = biological target: T2, VPAC2-R (Homo sapiens, UniProt P41587); assay: [3H]cAMP generation in VPAC2-R/PANC-1 cells; assay type: cell-based; conditions: read-out: [3H]cAMP VPAC2-R/PANC-1 EC50; VPAC2-R/PANC-1 cells
T2 sequence (P41587 24-438): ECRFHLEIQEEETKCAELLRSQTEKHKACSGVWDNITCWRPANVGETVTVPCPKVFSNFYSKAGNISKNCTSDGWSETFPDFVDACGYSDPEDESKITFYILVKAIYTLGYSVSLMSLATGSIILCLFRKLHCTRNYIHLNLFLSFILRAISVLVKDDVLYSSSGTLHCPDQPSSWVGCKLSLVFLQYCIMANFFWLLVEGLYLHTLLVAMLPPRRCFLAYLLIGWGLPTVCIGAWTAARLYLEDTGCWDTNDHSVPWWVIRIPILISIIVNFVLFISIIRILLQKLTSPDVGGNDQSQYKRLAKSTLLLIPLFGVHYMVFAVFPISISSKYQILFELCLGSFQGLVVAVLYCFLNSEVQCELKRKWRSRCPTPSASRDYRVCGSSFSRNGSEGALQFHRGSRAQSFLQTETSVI

VPAC2-R [3] = biological target: T2, VPAC2-R; assay type: binding; conditions: read-out: IC50 VPAC2-R, Sup-T1; Sup-T1 cells, 75 pM 125I-Ro 25-1553, 37°C
VPAC1-R [4] = biological target: T3, VPAC1-R (Homo sapiens, UniProt P32241); assay: Binding of 125I-VIP to VPAC1-R/PANC-1 cells; conditions: ratio of binding IC50, analog vs native parent peptide
VPAC1-R [5] = biological target: T3, VPAC1-R; assay: [3H]cAMP generation in T47D cells; assay type: cell-based; conditions: T47D cells; for [3H]cAMP T47D % max (agonist class): relative to PACAP38, up to 1 µM; for EC50: read-out: [3H]cAMP T47D EC50
PAC1-R [6] = biological target: T1, PAC1-R; assay: Binding of 125I-PACAP27 to PAC1-R stably transfected NIH 3T3 cells; conditions: for decrease in affinity for PAC1-R cells compared to native PACAP38 (or PACAP27): ratio of binding IC50, analog vs native parent peptide; for lower affinity for PAC1-R cells than VPAC2-R/PANC-1 cells: binding IC50 ratio, VPAC2-R preferring
VPAC1-R [7] = biological target: T3, VPAC1-R; assay: [3H]cAMP generation in VPAC1-R/PANC-1 cells; assay type: cell-based; conditions: for greater affinity than potency for stimulating cAMP generation, VPAC1-R/PANC-1 cells: EC50 cAMP over binding IC50; for EC50: read-out: [3H]cAMP VPAC1-R/PANC-1 EC50; for EC50 / [3H]cAMP VPAC1-R/PANC-1 % max (agonist class): VPAC1-R/PANC-1 cells; for [3H]cAMP VPAC1-R/PANC-1 % max (agonist class): relative to PACAP38, up to 1 µM

Substance	higher potency for PAC1-R cells compared to VPAC1-R/PANC-1 cells (PAC1-R [1])	higher potency for PAC1-R cells compared to VPAC2-R/PANC-1 cells (PAC1-R [1])	EC50 (PAC1-R [1]; PAC1-R cells) [µM]	EC50 (VPAC2-R [2]) [µM]	IC50 (VPAC2-R [3]) [µM]	decrease in affinity for VPAC1-R/PANC-1 cells compared to native PACAP38 (or PACAP27, VIP) (VPAC1-R [4])	[3H]cAMP T47D % max, agonist activity at 1 µM, still increasing (VPAC1-R [5])	[3H]cAMP T47D % max (agonist class) (VPAC1-R [5])	EC50 (VPAC1-R [5]) [µM]	decrease in affinity for PAC1-R cells compared to native PACAP38 (or PACAP27) (PAC1-R [6])	greater affinity than potency for stimulating cAMP generation, VPAC1-R/PANC-1 cells (VPAC1-R [7])	EC50 (VPAC1-R [7]) [µM]	greater affinity than potency, PAC1-R cells (PAC1-R [1])	[3H]cAMP PAC1-R % max (agonist class) (PAC1-R [1]; PAC1-R cells)	[3H]cAMP VPAC1-R/PANC-1 % max (agonist class) (VPAC1-R [7])	lower affinity for PAC1-R cells than VPAC2-R/PANC-1 cells (PAC1-R [6])	EC50 (PAC1-R [1]) [µM]	IC50 (PAC1-R [6]; read-out: IC50 PAC1-R) [µM]
[Pro^3,Lys^34]PACAP38 [Peptide P25]	6–15 fold	7-to-15 fold	0.0194 ± 0.0012	0.252 ± 0.013	0.107 ± 0.004	11–40 fold	Ag (1 µM, 60) % max	Ag (1 µM, 60)	0.00724 ± 0.00042	100–300 fold	1.2–65.2 fold	0.204 ± 0.009	–	–	–	–	–	–
[Pip^3]PACAP38 [Peptide P26]	–	–	> 1	> 1	0.257 ± 0.004	100–500 fold	–	No Act	> 1	100–300 fold	1.2–65.2 fold	> 1	1.2- to 64 fold	no agonist activity; also recorded: inactive; also recorded: No Act	no agonist activity; also recorded: No Act	–	–	–
[Sar^3]PACAP38 [Peptide P19]	2-to-5 fold	12–140 fold	0.096 ± 0.006	> 1	0.214 ± 0.013	100–500 fold	Ag (1 µM, 53) % max	Ag (1 µM, 53)	0.891 ± 0.049	100–300 fold	–	0.182 ± 0.023	1.2- to 64 fold	–	–	–	–	–
[Pip^3,Aib^16,28,Ala^17,Lys^34,D-Lys^38]PACAP38 [Peptide P35]	6–15 fold	7-to-15 fold	0.407 ± 0.02	> 1	0.66 ± 0.02	180-to-620 fold	–	No Act	> 1	> 1,000 fold	1.2–65.2 fold	> 1	–	Ag (1 µM, 81)	Ag (1 µM, 48)	2–4 fold	–	–
[Ala^22]PACAP38 [Peptide P17]	–	–	–	0.282 ± 0.012	> 1	11–40 fold	–	–	0.0417 ± 0.0039	–	–	0.00107 ± 6e-05	–	–	–	–	0.00032 ± 0.00011	0.00372 ± 0.00012
[Pro^3]PACAP38 [Peptide P18]	16–50 fold	22–55 fold	0.129 ± 0.006	> 1	0.229 ± 0.013	100–500 fold	–	No Act	> 1	100–300 fold	1.2–65.2 fold	> 1	1.2- to 64 fold	–	Ag (1 µM, 40)	–	–	–
[Hyp^3,Aib^16,Ala^17,Lys^34]PACAP38 [Peptide P31]	15-to-666 fold	103 fold	0.00151 ± 0.0001	0.155 ± 0.011	0.1 ± 0.004	180-to-620 fold	Ag (1 µM, 55) % max	Ag (1 µM, 55)	> 1	100–300 fold	–	0.155 ± 0.013	–	–	Ag (1 µM, 80)	–	–	–
[Pip^3,Aib^16,28,Ala^17,21,Lys^34,D-Lys^38]PACAP38 [Peptide P40]	–	–	> 1	> 1	> 1	> 1,000 fold	–	No Act	> 1	> 1,000 fold	–	> 1	–	no agonist activity; also recorded: No Act	no agonist activity; also recorded: No Act	–	–	–
[Ala^15,17,Aib^16,28,Lys^34,D-Lys^38]PACAP38 [Peptide P32]	–	5 fold	0.00138 ± 7e-05	0.00741 ± 0.00039	0.0427 ± 0.0011	30-to-100 fold	–	–	0.0302 ± 0.0029	> 350 fold	–	0.00195 ± 0.00016	–	–	–	–	–	–
[Pip^3,Ala^14,17,Aib^16,28,Lys^34,D-Lys^38]PACAP38 [Peptide P39]	–	–	> 1	> 1	> 1	> 1,000 fold	–	No Act	> 1	> 1,000 fold	–	> 1	–	Ag (1 µM, 14)	no agonist activity; also recorded: No Act	2–4 fold	–	–
